Target: PDE-11 (Homo sapiens, UniProt Q9HCR9)

Protein sequences, listed by entry. Tags and fused reporters are not part of them. Lines headed by an entry give the natural chain unless they say otherwise; changes in a name come on top.
UniProt Q9HCR9: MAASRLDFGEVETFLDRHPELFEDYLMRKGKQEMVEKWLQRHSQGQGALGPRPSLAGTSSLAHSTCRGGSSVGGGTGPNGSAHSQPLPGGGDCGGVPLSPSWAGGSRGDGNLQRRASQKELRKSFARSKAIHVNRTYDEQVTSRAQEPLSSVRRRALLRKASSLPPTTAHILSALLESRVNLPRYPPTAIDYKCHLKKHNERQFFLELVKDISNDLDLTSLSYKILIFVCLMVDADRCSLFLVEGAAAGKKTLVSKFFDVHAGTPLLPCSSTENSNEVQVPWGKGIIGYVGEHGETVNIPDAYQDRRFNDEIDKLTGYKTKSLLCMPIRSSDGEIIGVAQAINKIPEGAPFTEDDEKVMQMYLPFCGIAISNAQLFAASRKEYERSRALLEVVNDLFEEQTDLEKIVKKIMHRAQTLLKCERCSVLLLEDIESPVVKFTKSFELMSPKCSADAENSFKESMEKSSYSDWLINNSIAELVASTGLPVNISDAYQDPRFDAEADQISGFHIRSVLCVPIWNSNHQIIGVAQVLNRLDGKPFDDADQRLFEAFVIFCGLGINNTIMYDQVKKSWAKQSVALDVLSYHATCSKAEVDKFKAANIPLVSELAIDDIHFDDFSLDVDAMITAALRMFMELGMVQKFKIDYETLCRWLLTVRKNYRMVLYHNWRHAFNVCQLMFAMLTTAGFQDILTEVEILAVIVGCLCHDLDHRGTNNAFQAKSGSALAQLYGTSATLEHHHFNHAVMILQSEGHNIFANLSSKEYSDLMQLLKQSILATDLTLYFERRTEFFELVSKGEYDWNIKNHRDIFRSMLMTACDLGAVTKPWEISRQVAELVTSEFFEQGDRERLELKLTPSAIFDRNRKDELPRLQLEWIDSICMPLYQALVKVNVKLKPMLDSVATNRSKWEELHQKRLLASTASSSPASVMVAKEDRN

CN1CC(=O)N2[C@H](c3ccc4c(c3)OCO4)c3[nH]c4ccccc4c3C[C@@H]2C1=O [Cialis]
inhibition of the activity of PDE-11: inhibits the activity of PDE-11

Reference: patent US8148386B2, “Agent for the prevention and treatment of prostatic hyperplasia comprising pyrazolopyrimidinone compound” (priority 2006, dated 2012)
